Results as given in patent publication US12565660B2, “Immunomodulating transgenic plants and related methods” (AGRIVIDA, INC., priority 2017, dated 2026).

Conditions: 10 minute digestion, 37° C., pH 1.2, 2630 Units pepsin per milliliter

Substance: bovine serum albumin [BSA]
- degradation in simulated gastric fluid (SGF): significantly degraded
